# Target: full-length human RORγt (Homo sapiens (Human), UniProt P51449)
# Amino acid sequences for entries named in this document (tags omitted). Chains listed by the source or under a name are the forms on record and can include a tag or linker.
# UniProt P51449, other isoform, or with tags, fused parts or gaps: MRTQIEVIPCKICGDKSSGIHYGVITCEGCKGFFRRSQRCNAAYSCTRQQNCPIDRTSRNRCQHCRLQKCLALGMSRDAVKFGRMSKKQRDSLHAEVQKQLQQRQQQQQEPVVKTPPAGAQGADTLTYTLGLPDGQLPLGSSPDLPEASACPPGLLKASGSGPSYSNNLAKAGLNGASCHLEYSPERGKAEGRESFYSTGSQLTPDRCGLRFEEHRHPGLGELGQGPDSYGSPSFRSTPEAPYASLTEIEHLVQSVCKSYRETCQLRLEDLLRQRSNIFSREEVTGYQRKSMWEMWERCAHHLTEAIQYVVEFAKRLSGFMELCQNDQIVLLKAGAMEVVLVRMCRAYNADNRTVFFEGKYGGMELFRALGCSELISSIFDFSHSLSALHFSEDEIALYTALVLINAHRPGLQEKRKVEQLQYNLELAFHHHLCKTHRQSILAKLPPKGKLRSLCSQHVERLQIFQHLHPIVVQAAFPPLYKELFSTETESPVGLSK
# Assay: RORγt (full-length human) reporter assay, conditions A or B, HEK293T cells
# Assay type: cell-based
# Details: HEK-293T; 3 μM compound concentration (footnote *); read-out: RORγt (FL) Reporter Assay A or B, % inhibition
# Protocol: RORγt (Full-Length Human) Reporter Assay:
# (§1) HEK293T cells were plated at 35,000 per well in 96-well plate in medium of DMEM with 10% FBS. […] After overnight (16 to 20 hours) incubation, media were removed and cells were lysed with 50 L Glo Lysis Buffer (Promega) for 10-15 minutes followed by 10 minute incubation with 50 μL Dual Glo reagent (Promega) at room temperature. Firefly luciferase luminescence was measured using a BMG Pherastar plate reader. To each well, 50 μL Stop and Glo reagent was added and incubated for 10 minutes at room temperature. Renilla luminescence was measured using a BMG Pherastar plate reader. To calculate the effect of compounds on RORγt activity, firefly values were normalized against values of DMSO only and values of reference compound at saturating concentration, then further normalized against Renilla signals. IC50s were generated by plotting final Renilla normalized data against compound concentration and percent inhibition was calculated against DMSO control.
# as §1, with “at 8750 cells” for “at 35,000”, “in 384-well” for “in 96-well”, “with 20” for “with 50”, “well, 20” for “well, 50”
row,Compound,inhibition at 3 µM [%]
1,"CCn1nc(C(=O)NC[C@@H]2CC[C@@H](S(C)(=O)=O)CN2C(C)=O)c(Cl)c1-c1ccc(CC(C)(C)C(F)(F)F)cc1OC(F)F (stereo in doubt) [Example 65, N-(((2S*,5R*)-1-Acetyl-5-(methylsulfonyl)piperidin-2-yl)methyl)-4-chloro-5-(2-(difluoromethoxy)-4-(3,3,3-trifluoro-2,2-dimethylpropyl)phenyl)-1-ethyl-1H-pyrazole-3-carboxamide]",106
2,"CCn1nc(C(=O)NC[C@H]2CC[C@H](S(C)(=O)=O)CN2C(C)=O)c(Cl)c1-c1ccc(CC(C)(C)C(F)(F)F)cc1OC(F)F (stereo in doubt) [Example 66, N-(((2R*,5S*)-1-Acetyl-5-(methylsulfonyl)piperidin-2-yl)methyl)-4-chloro-5-(2-(difluoromethoxy)-4-(3,3,3-trifluoro-2,2-dimethylpropyl)phenyl)-1-ethyl-1H-pyrazole-3-carboxamide]",89
3,"Cc1c(C(=O)NC[C@H]2CC[C@H](S(C)(=O)=O)CC2)nn(CC(C)(C)O)c1-c1ccc(CC(C)(C)C(F)(F)F)cc1OC(F)F [Example 147, 5-(2-(Difluoromethoxy)-4-(3,3,3-trifluoro-2,2-dimethylpropyl)phenyl)-1-(2-hydroxy-2-methylpropyl)-4-methyl-N-(((1r,4r)-4-(methylsulfonyl)cyclohexyl)methyl)-1H-pyrazole-3-carboxamide]",108
